In BindingDB's records for doi:10.1021/bi401043w (Mayo Clinic, 2013) one finds Ki data, which are given here for 1 compound.

By UniProt entry, the sequences of proteins in these tests, tags left out. Where a name states a change or a piece, a line headed by the entry shows the natural chain unless it says otherwise.
UniProt P22303: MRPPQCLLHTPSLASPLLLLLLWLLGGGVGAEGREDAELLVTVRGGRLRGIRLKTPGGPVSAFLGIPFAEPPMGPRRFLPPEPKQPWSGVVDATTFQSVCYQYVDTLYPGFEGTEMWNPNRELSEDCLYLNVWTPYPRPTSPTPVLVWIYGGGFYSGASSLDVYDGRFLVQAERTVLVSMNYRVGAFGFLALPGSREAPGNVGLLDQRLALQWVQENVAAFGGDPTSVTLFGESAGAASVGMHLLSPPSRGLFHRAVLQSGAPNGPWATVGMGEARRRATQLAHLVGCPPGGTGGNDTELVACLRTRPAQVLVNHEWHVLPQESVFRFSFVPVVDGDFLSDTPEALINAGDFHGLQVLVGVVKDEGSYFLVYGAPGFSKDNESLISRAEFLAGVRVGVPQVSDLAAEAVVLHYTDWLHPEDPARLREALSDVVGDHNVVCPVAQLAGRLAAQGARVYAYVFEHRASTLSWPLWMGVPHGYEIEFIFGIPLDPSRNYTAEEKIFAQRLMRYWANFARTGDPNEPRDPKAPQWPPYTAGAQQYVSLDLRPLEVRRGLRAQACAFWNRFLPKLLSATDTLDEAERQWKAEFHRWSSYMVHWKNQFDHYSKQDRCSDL

In this assay the target is Acetylcholinesterase (Homo sapiens, UniProt P22303). Nature of the assay: Assay of Substrate Hydrolysis. The conditions noted are these: pH 7; 25 °C.

Usually Ki stands for the equilibrium dissociation constant of an inhibitor or competing ligand from its target. A low value points to higher affinity. On to `CC[N+](C)(CC)CCCn1c2cc(=N)ccc-2c2ccc(N)cc2c1-c1ccccc1` [Propidium Iodide, 2], for which the Ki stood at 660 nM.
